Experimental data taken from ChEMBL document CHEMBL1137037, “Pyrrolo[2,1-c][1,4]benzodiazepine-anthraquinone conjugates. Synthesis, DNA binding and cytotoxicity” (Bioorg Med Chem Lett, 2004).

System: Calf thymus DNA
Assay: Thermal denaturation of calf thymus DNA at 18 hr at 37 degree C
Type: nucleic-acid assay
Settings: Bos taurus
Summary of the method: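 Calf thymus DNA at 100 μM with ligand at 20 μM (1:5 [PBD]/[DNA] molar ratio), in 10 mM sodium phosphate plus 1 mM EDTA, pH 7.00 ± 0.01. Samples were incubated at 37 °C for 0 h or 18 h before thermal melting. The value is the induced ΔTm against DNA alone, whose Tm is the mean of 10 separate determinations.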

Structure (SMILES): COc1cc2c(cc1O)N=C[C@@H]1CCCN1C2=O
- ΔTm: 0.7 °C
